The experiment deals with Histone-lysine N-methyltransferase EZH2 (Homo sapiens) (UniProt Q15910). The settings on record: Affinity Biochemical Source Knowledge https://doi.org/10.1021/ml3003346.

Amino acid sequences for entries named in this document (tags omitted).
UniProt Q15910, whole entry, looked up: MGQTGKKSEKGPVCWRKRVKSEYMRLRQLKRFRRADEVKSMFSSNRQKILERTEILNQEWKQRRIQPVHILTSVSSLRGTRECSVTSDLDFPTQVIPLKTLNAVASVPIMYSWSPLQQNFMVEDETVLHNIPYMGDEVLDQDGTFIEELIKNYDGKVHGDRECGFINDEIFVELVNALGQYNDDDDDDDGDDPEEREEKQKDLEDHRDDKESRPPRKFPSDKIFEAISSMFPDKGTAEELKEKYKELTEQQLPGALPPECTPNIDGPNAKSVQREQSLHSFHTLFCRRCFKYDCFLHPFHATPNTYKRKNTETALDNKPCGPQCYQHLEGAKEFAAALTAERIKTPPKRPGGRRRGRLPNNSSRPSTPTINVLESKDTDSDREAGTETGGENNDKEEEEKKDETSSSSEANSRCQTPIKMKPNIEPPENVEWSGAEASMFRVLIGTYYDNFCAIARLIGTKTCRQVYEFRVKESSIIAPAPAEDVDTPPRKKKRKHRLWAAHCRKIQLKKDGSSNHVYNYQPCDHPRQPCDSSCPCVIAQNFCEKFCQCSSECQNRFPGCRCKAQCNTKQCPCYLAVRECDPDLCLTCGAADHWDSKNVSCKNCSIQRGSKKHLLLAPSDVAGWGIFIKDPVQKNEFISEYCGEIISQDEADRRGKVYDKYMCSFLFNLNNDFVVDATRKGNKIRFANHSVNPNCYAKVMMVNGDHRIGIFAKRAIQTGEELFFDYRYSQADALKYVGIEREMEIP

`CCCc1cc(C)[nH]c(=O)c1CNC(=O)c1cc(-c2ccnc(N3CCN(C)CC3)c2)cc2c1cnn2C(C)C` displayed a Ki,app of 1.2 nM.

For the origin of these results see ChEMBL document CHEMBL5210307, “Affinity Biochemical Literature for EUbOPEN Chemogenomics Library wave 3” (2023).
